# System: participants undergoing primary unilateral elective TKR surgery
# Assay: Total venous thromboembolism (VTE) in TKR patients, AXIOMATIC-TKR
smiles,measurement,setting,value
"C[C@@H]1CCC[C@H](n2cnc(-c3cc(Cl)ccc3-n3cc(Cl)nn3)cc2=O)c2cc(ccn2)-c2c(cnn2C(F)F)NC1=O [Milvexian, (5R,9S)-9-(4-(5-chloro-2-(4-chloro-1H-1,2,3-triazol-1-yl)phenyl)-6-oxopyrimidin-1 (6H)-yl)-2^1-(difluoromethyl)-5-methyl-2^1H-3-aza-1 (4,2)-pyridina-2 (5,4)-pyrazolacyclonaphan-4-one]",total VTE rate,"combined milvexian, 108 of 796",13.6%
same,total VTE rate,"milvexian BID dose regimens, 63 of 518",12.2%
